# Test results published in PubChem BioAssay AID588621 (Sanford-Burnham Center for Chemical Genomics, 2011).
# By UniProt entry, the sequences of proteins in these tests, tags left out.
# UniProt P54829, whole entry: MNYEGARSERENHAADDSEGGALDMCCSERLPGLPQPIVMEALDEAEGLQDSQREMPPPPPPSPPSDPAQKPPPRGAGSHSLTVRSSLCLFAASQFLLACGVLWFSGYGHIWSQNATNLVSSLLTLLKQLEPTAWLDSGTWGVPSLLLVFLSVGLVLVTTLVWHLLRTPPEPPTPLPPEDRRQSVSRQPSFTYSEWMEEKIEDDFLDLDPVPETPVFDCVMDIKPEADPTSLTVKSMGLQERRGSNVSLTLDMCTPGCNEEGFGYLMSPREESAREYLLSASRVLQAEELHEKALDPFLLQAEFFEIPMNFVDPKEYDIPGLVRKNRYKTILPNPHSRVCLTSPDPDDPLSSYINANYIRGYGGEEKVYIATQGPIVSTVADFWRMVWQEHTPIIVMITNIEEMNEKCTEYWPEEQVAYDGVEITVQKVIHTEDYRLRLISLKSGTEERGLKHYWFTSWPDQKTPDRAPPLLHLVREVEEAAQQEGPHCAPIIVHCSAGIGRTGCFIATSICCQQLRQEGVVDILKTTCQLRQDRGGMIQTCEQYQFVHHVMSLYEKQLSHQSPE
# The list shows a part of the results, in another mix than the full data. Some of these compounds have results that are not shown, active ones among them. Active and inactive are the calls of the source.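 The calls were made as follows: active = inhibition at 20 µM, scaled per plate between control wells, above about 37% (limit read from the data); inactive = the rest.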
# Biological target: Tyrosine-protein phosphatase non-receptor type 5 (Homo sapiens) (UniProt P54829)
# Assay: inhibition of human PTPN5 enzyme activity – biochemical, fluorescence intensity, uHTS, primary screen (AID 588621);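 also: 0% = DMSO with enzyme and substrate and 100% = substrate only without enzyme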
# Conditions: recombinant STEP, OMFP fluorogenic substrate, at 20 µM, hits give high values
# In short: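 Assay system: isolated STEP enzyme. Buffer or medium: pH 6.0 Bis-Tris with DTT and Tween 20. Also added: fluorogenic phosphatase substrate OMFP at 25 µM final. Dosing: 20 µM, 1% DMSO. Timing: 20 min reaction, room temperature, in the dark. Measured by: fluorescence intensity, excitation 480 nm, emission 540 nm. Evaluation: normalized % inhibition.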
row,SMILES,inhibition
1,COc1ccc(Br)c(C(=O)NCC2(N3CCCCC3)CCCCC2)c1,inactive: 2.9%
2,C=C(C)C#CC(O)(C(=O)OC1CCN(C)CC1)c1ccccc1 (stereo unspecified),inactive: 4.6%
3,CN(C)c1cccc(C(=O)NCC2(N(C)C)CCCCC2)c1,inactive: -2.5%
4,CC(C)Oc1ccc(C(=O)NCC2(N(C)C)CCCCC2)cc1,inactive: 0.4%
5,O=C(OCCN1CCCC1)C(O)(c1ccccc1)c1ccccc1,inactive: 1.6%
6,O=C(OC1CN2CCC1CC2)C(CO)(c1ccccc1)c1ccccc1 (stereo unspecified),inactive: -1.3%
7,COc1cccc(C(=O)NCC2(N3CCCCC3)CCCCC2)c1,inactive: -0.2%
8,COc1ccc(Cl)cc1C(=O)NCC1(N(C)C)CCCCC1,inactive: -0.4%
9,O=C(NCC1(N2CCCCC2)CCCCC1)c1cccc(Cl)c1,inactive: -2.6%
10,CN(C)C1(CNC(=O)c2ccc(Br)cc2)CCCCC1,inactive: -3%
11,COc1cc(C(=O)NCC2(N(C)C)CCCCC2)c([N+](=O)[O-])cc1OC,inactive: -2.9%
12,C=CCN1CCN(CCOC(=O)C(O)(c2ccccc2)c2ccccc2)CC1,inactive: -0.6%
13,O=C(NCC1(N2CCCCC2)CCCCC1)c1cc(F)c(F)cc1Cl,inactive: 1.1%
14,Cc1cc(C(=O)NCC2(N3CCCCC3)CCCCC2)ccc1[N+](=O)[O-],inactive: -3.3%
15,CCN1CCCC(OC(=O)C2(O)c3ccccc3C=Cc3ccccc32)C1 (stereo unspecified),inactive: -1.4%
16,O=C(NCC1(N2CCCCC2)CCCCC1)c1cccc(Br)c1,inactive: -1.4%
17,COc1ccc(C(=O)NCC2(N(C)C)CCCCC2)cc1,inactive: 1.3%
18,Cc1ccccc1C(=O)NCC1(N2CCCCC2)CCCCC1,inactive: 1%
19,CN(C)C1CCCC1OC(=O)C(O)(c1ccccc1)c1ccccc1 (stereo unspecified),inactive: 0.2%
20,CN(C)c1ccc(C(=O)NCC2(N(C)C)CCCCC2)cc1,inactive: -1%
21,CC(C)N1C(=O)CC2(CCN(CCOC(=O)C(O)(c3ccccc3)c3ccccc3)CC2)C1=O,inactive: 0.3%
22,CCN(CC)CC(C)C(C)OC(=O)C(O)(c1ccccc1)c1ccccc1 (stereo unspecified),inactive: -1.1%
23,COc1cc(SC)ccc1C(=O)NCC1(N(C)C)CCCCC1,inactive: -0.2%
24,Cc1ccc(C(=O)NCC2(N3CCCCC3)CCCCC2)cc1,inactive: -0.1%
25,O=C(NCC1(N2CCCCC2)CCCCC1)c1cc([N+](=O)[O-])ccc1Cl,inactive: 14.5%
26,CN1[C@@H]2CC[C@H]1CC(OC(=O)C(O)(c1ccccc1)c1ccccc1)C2 (stereo partly specified),inactive: -4%
